Yeast UUG start: alters start codon recognition fidelity in yeast | S. cerevisiae UUG-firefly luciferase reporter, luminescence/redox ratio | activity score, % at 18.7 µM | hit rate 0.13% among 350,000 | AID 602363;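 active means replicate mean at a twofold rise or more, about +100% in these data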;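 further: firefly luciferase made from a UUG start codon reports start codon fidelity; reporter light over untreated wells divided by growth signal over untreated wells; some hits fall short of that in this replicate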
ARFGAP1 inh: inhibits rat ARF GTPase activating protein 1; inhibition, % at 16.5 µM; Arfgap1-stimulated ARF1 GTP hydrolysis, GDP FP detection; Q62848; 360,000 tested, 0.26% active; AID 651572;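 active = inhibition above a per-plate limit, mean inhibition of low control wells plus 3 SD, cut at about 25% in these data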
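Assay system: purified rat His6-Arfgap1 residues 1-136 (GAP domain); Reagent: human Δ17 ARF1 bound to GTP; Dosing: 16.5 µM single point, 1.26% DMSO; Times: GTP hydrolysis reaction 2 h at 25 °C; Signal: FP, GDP Alexa 633 tracer displaced from anti-GDP antibody, 620/688 nm; Measure: % inhibition from polarization.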
MC4R antagonist: human MC4R antagonism in cAMP assay; P32245; MC4R-expressing cells, MTII-stimulated cAMP, LANCE TR-FRET; inhibition, % at 6.5 µM; 360,000 tested, 0.48% active; AID 540295;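 active = inhibition above its plate's cutoff, the mean of tested wells on that plate plus 3 SD, cut at about 29% in these data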
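Assay system: U2OS-MC4R stable cell line; Also added: Melanotan II; Technique: Eu-cAMP/anti-cAMP TR-FRET, emission 671 nm; Times: 30-min compound, 1-h challenge, 1-h detection, room temperature.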
ASAP1 inh: inhibitors of human ASAP1 ArfGAP activity. Q9ULH1. ASAP1-stimulated ARF1 GTP hydrolysis, GDP FP detection. inhibition, % at 16.5 µM. 360,000 tested, 0.19% active. AID 624377; in the data active = inhibition above about 25%
MC4R ag barr: human MC4R agonism via beta-arrestin. P32245. U2OS MC4R beta-arrestin complementation, luminescence; percent of melanotan II response, DMSO zero. activation, % at 8.9 µM. 360,000 tested, 0.98% active;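 active = activation above a per-plate cutoff, the mean activation of sample wells on that plate plus 3 SD, cut at about 8% in these data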
NRP1-CendR mod: modulators of CendR peptide binding to human neuropilin-1; O14786; FAM-RPARPAR peptide binding to NRP-1, fluorescence polarization; inhibition, % at 25 µM; 360,000 tested, 0.85% active; AID 602438;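 active = inhibition or corrected inhibition above about 18%, plus a signal ratio from 0.5 to 1.5, limit read from the data, passing the limit was not always enough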
MC4R barr ag: human MC4R beta-arrestin agonism confirmation; shares compounds with MC4R ag barr; 2,400 tested, 31% active; U2OS MC4R beta-arrestin recruitment, luminescence; scaled DMSO 0%, Melanotan II 100%; activation, % at 8.9 µM;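 active = mean activation across replicates above the hit cutoff set in the earlier primary screen, cut at about 8% in these data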
MOR DOR agonist: OPRM1-OPRD1 heterodimer agonism counter-screen; activation, % at 9.2 µM; 2,400 tested, 5.8% active; shares compounds with MC4R ag barr; U2OS PathHunter beta-arrestin, beta-gal luminescence; percent of deltorphin B response, DMSO zero;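 active = mean activation across replicates exceeds the hit threshold derived in the earlier primary screen, cut at about 18% in these data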
Large screens that a line does not name were inactive (follow-up assays come after a bar, where they were run). Sampled rows, rich in hits. Any-hit rate of the full collection: about 2.3%.

Cc1ccnc(SCC(=O)Nc2oc(-c3ccccc3)c(-c3ccccc3)c2C#N)n1	MC4R ag barr 17 | MC4R barr ag inactive | MOR DOR agonist inactive
CC(=O)N1C[C@H]2[C@@H](c3ccccc31)[C@@H](CO)N2C(=O)Nc1ccc(F)cc1	none (no result: ARFGAP1 inh, MC4R antagonist, ASAP1 inh, MC4R ag barr, NRP1-CendR mod)
CCOc1ccc(-c2nnc(-c3ccccc3)o2)cc1	none
CCOc1ccc(-c2nnc(-c3ccc(OC)cc3)o2)cc1	MC4R ag barr 31 | MC4R barr ag inactive | MOR DOR agonist inactive
CCc1ccc(Nc2nnc(SCC(=O)Nc3ccc(C(=O)O)cc3)s2)cc1	none
CCc1ccc(Nc2nnc(SCC(=O)NC(=O)c3cccn3C)s2)cc1	MC4R ag barr 20 (no result: Yeast UUG start) | MC4R barr ag inactive | MOR DOR agonist inactive
Cc1ccc(CSc2nnc(Nc3ccc(C)cc3)s2)cc1	MC4R ag barr 19 | MC4R barr ag inactive | MOR DOR agonist inactive
CN1C(=O)c2cc(NC(=O)C3CCCC3)ccc2OC[C@H]2O[C@H](CC(=O)NCC3CC3)CC[C@H]21	none (no result: ARFGAP1 inh, MC4R antagonist, ASAP1 inh, MC4R ag barr, NRP1-CendR mod)
CCn1nc(NC(=O)c2ccncc2)c2cc3cccc(C)c3nc21	none
CCn1nc(NC(=O)c2cccnc2)c2cc3cccc(C)c3nc21	MC4R ag barr 17 | MC4R barr ag inactive | MOR DOR agonist inactive
COCC(=O)Nc1ccc2c(c1)OC[C@H](C)N(CCC(F)(F)F)C[C@@H](C)[C@H](OC)CN(C)C2=O	none (no result: ARFGAP1 inh, MC4R antagonist, ASAP1 inh, MC4R ag barr, NRP1-CendR mod)
COc1ccc(CN(C)C[C@H]2Oc3ccc(NC(=O)Nc4ccc(C(F)(F)F)cc4)cc3CC(=O)N([C@H](C)CO)C[C@H]2C)cc1	none (no result: ARFGAP1 inh, MC4R antagonist, ASAP1 inh, MC4R ag barr, NRP1-CendR mod)
CCc1ccc(C(O)c2ncc(-c3ccc4ccccc4c3)[nH]2)cc1 (stereo unspecified)	MC4R ag barr 17 | MC4R barr ag inactive | MOR DOR agonist inactive
CCc1ccc(C(O)c2ncc(-c3cccc(C(F)(F)F)c3)[nH]2)cc1 (stereo unspecified)	MC4R ag barr 13 | MC4R barr ag 10 | MOR DOR agonist inactive
C[C@@H]1CCCCO[C@H](CN(C)C(=O)Cc2ccccc2)[C@H](C)CN([C@@H](C)CO)C(=O)c2cc(NC(=O)Nc3cccc4ccccc34)ccc2O1	none (no result: ARFGAP1 inh, MC4R antagonist, ASAP1 inh, MC4R ag barr, NRP1-CendR mod)
Cc1ccc(C)c(OCCC(=O)OCC(=O)NC(=O)NC2CCCC2)c1	MC4R ag barr 14 | MC4R barr ag inactive | MOR DOR agonist inactive
Cc1ccc(C)c(OCCC(=O)OCC(=O)NC2CC2)c1	none
CCC(C(=O)OCC(=O)NC(=O)NC(C)(C)C)c1ccccc1 (stereo unspecified)	MC4R ag barr 9.7 (no result: Yeast UUG start) | MC4R barr ag inactive | MOR DOR agonist inactive
N#CC(=Cc1ccccn1)c1nc(-c2ccc(Cl)cc2)cs1	MC4R ag barr 17 | MC4R barr ag inactive | MOR DOR agonist inactive
Nc1ccccc1-c1nnc(-c2ccc(-c3ccccc3)cc2)o1	MC4R ag barr 12 | MC4R barr ag inactive | MOR DOR agonist inactive
CC(C)CC#Cc1ccc2c(c1)O[C@@H](CN(C)C(=O)c1ccncc1)[C@@H](C)CN([C@@H](C)CO)S2(=O)=O	none (no result: ARFGAP1 inh, MC4R antagonist, ASAP1 inh, MC4R ag barr, NRP1-CendR mod)
COc1ccc(C2=NN(C(=O)c3cccs3)C(c3ccccc3O)C2)cc1 (stereo unspecified)	MC4R ag barr 13 (no result: Yeast UUG start) | MC4R barr ag 16 | MOR DOR agonist inactive
CCOc1cc(/C=N/NC(=O)c2nn(C)cc2Br)ccc1OCc1ccccc1Cl	MC4R ag barr 12 (no result: Yeast UUG start) | MC4R barr ag inactive | MOR DOR agonist inactive
O=S(=O)(Nc1ccc(-n2cccc2)cc1)c1ccc(Cl)cc1Cl	MC4R ag barr 11 | MC4R barr ag inactive | MOR DOR agonist inactive
COc1ccc(-c2ccc([C@H]3[C@@H](C#N)N(C(=O)NC4CCCC4)[C@@H]3CO)cc2)cc1	none (no result: ARFGAP1 inh, MC4R antagonist, ASAP1 inh, MC4R ag barr, NRP1-CendR mod)
CCOc1ccc(/C=N/NC(=S)NC2CC3CC2C2C=CCC32)cc1 (stereo unspecified)	none
